Measurements as given in paper PMC4422330 (Bioorganic & medicinal chemistry letters, 2008).

By UniProt entry, the sequences of proteins in these tests, tags left out. Where a name states a change or a piece, a line headed by the entry shows the natural chain unless it says otherwise.
UniProt Q8I302: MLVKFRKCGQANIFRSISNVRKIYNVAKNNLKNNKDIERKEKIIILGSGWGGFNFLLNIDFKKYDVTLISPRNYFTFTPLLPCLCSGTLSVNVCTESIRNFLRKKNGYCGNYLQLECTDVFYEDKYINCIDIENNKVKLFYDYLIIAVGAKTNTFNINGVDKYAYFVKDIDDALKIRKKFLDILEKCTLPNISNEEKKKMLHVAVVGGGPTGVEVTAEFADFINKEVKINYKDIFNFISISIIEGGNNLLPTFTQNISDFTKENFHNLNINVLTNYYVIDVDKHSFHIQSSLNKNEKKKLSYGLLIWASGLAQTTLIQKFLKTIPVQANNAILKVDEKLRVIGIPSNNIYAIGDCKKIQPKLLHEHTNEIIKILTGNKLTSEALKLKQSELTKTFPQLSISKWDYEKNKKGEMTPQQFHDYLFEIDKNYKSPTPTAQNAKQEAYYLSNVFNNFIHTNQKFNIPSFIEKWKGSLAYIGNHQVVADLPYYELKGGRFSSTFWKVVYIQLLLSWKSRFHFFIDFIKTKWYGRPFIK

Columns and labels:
pfDHOD = target: T1, pfDHOD (Plasmodium falciparum, UniProt Q08210); experiment: biochemical
T1 sequence (Q08210 24-569): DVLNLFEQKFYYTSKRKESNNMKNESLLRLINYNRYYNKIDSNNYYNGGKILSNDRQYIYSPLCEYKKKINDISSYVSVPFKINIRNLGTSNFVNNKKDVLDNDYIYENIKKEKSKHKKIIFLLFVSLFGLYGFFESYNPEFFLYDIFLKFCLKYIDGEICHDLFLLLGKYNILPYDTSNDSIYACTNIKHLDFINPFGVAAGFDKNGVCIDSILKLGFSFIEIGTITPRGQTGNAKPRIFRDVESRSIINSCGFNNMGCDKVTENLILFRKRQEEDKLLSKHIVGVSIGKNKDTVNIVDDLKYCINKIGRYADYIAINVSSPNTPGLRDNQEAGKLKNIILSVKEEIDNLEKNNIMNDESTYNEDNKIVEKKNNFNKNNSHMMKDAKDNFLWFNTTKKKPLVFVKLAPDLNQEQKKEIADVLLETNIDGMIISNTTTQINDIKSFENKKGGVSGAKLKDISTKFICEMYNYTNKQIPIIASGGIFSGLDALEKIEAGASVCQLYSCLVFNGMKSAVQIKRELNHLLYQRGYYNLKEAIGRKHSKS

pfNDH2 = pfNDH2 (Plasmodium falciparum, UniProt Q8I302); experiment: biochemical; format: biochemical

With `[Cl-].c1ccc2c(c1)[I+]c1ccccc1-2` [DPI, Dibenziodolium chloride] the IC50 (pfDHOD) was > 10 µM, the IC50 (pfNDH2) was > 10 µM and the “inhibition of pfNDH2 activity (in words)” value (pfNDH2; purified recombinant pfNDH2, concentrations of up to 10 µM) was “do not inhibit”.
